These are literature values, as cited in patent US5026728A, “Treatment of arthritis and inflammation using N,N-dimethylglycine” (Foodscience Corporation, priority 1989, dated 1991).

Counter-ions that a name gives are not always drawn. Like-named read-outs stand apart in the source and are kept apart here.

The conditions of the data set: cited from earlier work.

In the case of `CN(C)CC(=O)O` [DMG-HCl], the “acute LD50” value (intraperitoneal) was 6 g/kg and the “acute LD50” value (oral, neutralized aqueous solution, rat) was 7.4 g/kg of body weight.
